3 molecules from US9187462B2, “Substituted quinazolines as serine/threonine kinase inhibitors” (Array BioPharma Inc., priority 2011, dated 2015) can be followed below.

By UniProt entry, the sequences of proteins in these tests, tags left out. Residues count along the entry.
UniProt P28482, 8-360: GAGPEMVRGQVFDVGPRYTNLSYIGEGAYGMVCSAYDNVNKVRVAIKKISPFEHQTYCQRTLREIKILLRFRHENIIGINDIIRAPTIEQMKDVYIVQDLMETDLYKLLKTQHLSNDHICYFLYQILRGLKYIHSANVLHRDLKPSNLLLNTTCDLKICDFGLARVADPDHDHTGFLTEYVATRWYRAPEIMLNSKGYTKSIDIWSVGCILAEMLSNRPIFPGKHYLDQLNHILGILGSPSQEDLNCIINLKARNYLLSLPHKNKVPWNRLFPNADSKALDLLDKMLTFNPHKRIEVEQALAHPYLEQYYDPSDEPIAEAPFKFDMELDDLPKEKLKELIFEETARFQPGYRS

Read-outs that look alike come from different tables or passages of the source.

This assay has as its target human ERK-2 (Mitogen Activated Kinase 1) (Homo sapiens (Human), UniProt P28482). Briefly: ERK-2 Enzymatic Assay. The settings on record: 5 nM ERK-2 enzyme, 25 μM ATP, Omnia peptide S/T17, single assay or mean of multiple assays. It counts as biochemical. As for the experimental part:
Compounds were tested in an enzymatic assay using human ERK-2 (Mitogen Activated Kinase 1), recombinantly expressed as an N-terminal 6-His fusion protein in E. coli and corresponding to aa 8-360. The substrate used was the fluorescent Omnia peptide S/T17 (Invitrogen of Carlsbad, Calif.; Cat. KNZ1171C). Test compounds were diluted in DMSO in 3-fold serial dilutions at 100× final concentrations. […] The assay was run at ambient temperature in a white 384-well polypropylene plate (Nunc, Inc of Naperville, Ill.; Cat. 267462) collecting data every 50 seconds for approximately 30 minutes on an Envision plate reader (PerkinElmer, Inc. of Waltham, Mass.); Excitation 340 nm/Emission 495 nm. The data collected from each well was fit to a straight line and the resulting rates were used to calculate percent of control. Percent of control was plotted against compound concentration and IC50 values were determined using a four-parameter fit. Representative data is in TABLE I and TABLE II. The reported IC50 may be from a single assay or the mean of multiple assays.

Where [1] appears, read: read-out: IC50 (ERK-2 Enzymatic Assay), TABLE I.

In the case of `C[C@@H](CO)Nc1ncc2ccc(C(=O)N[C@@H](c3ccc(Cl)c(F)c3)c3cnn(C)c3)cc2n1` [I-15, 2-((S)-2-hydroxy-1-methyl-ethylamino)-quinazoline-7-carboxylic acid [(S)-(4-chloro-3-fluoro-phenyl)-(1-methyl-1H-pyrazol-4-yl)-methyl]-amide], the IC50 (usually the concentration that gives 50% inhibition) under setting [1] is 1.2 nM.
In the case of `COc1ccc([C@H](NC(=O)c2cc(F)c3cnc(N[C@H]4CC[C@H](O)CC4)nc3c2)c2cnn(C)c2)cc1F` [I-69], the IC50 under setting [1] stood at 1.2 nM.
Take `COc1ccc([C@H](NC(=O)c2cc(F)c3cnc(N[C@H]4CC[C@H](O)CC4)nc3c2)c2cnn(C)c2)cc1F` [II-13]: the IC50 (read-out: IC50 (ERK-2 Enzymatic Assay), TABLE II) amounted to 1.2 nM.
